Antibody variant affinities, Ab-14 heavy chain, assay B

Target peptide (SARS-CoV-2 spike, HR2 region): PDVDLGDISGINAS

Ab-14 is the parent antibody, in scFv form: VH, then a 15-residue (Gly4Ser)3 linker, then VL. The light chain is unchanged in all variants.
VH: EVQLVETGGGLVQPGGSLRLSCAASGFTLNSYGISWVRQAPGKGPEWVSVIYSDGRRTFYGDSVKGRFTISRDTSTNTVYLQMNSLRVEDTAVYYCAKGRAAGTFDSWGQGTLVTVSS
VL: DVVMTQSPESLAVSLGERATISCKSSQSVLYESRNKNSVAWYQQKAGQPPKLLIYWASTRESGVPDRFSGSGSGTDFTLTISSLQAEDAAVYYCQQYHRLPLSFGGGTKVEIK

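The variants were designed computationally from a first round of random CDR variants and then made and measured. Their group label is 14H_En_Gen (En: ensemble of fine-tuned language models; Gen: genetic algorithm). Affinity was read by AlphaSeq, a pooled yeast mating assay with surface-displayed partners. Pairs that bind mate more often; barcode pairs of the diploids are counted by sequencing. A regression on co-assayed BCL2-family reference pairs converts the normalised counts of each replicate to an apparent Kd. Mating was done six times.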

Each variant's VH is given in full.
Scale: log10 of Kd in nM, estimated from mating counts; low values are strong binders.
A pair that was not seen in that replicate is written "ND"; this usually means weak binding, but a binder can also be missed.
Three control strains display no target. For all heavy chain designs, 1% of the pairings with them gave a signal, with a median of 2.08 and one signal in twenty below 0.84, so weak values seen in few replicates may be background. For each scFv, signals with the empty controls are counted beside the result, with their mean in brackets.

{"VH": "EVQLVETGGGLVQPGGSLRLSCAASGFDLNEYGISWVRQAPGKGPEWVSVIYADGMRTAYTDSVKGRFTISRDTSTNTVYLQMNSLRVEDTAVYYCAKGGNAGTFDLWGQGTLVTVSS", "log10 Kd (nM) by replicate": "-0.19 -0.25 -0.43 -0.59 -0.48 -0.10", "empty controls": "0 of 18"}
{"VH": "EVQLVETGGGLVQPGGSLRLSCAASGFDLNEYGISWVRQAPGKGPEWVSVIYADGMRKAYADDVKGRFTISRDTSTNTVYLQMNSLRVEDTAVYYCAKGEVAGTFDLWGQGTLVTVSS", "log10 Kd (nM) by replicate": "ND ND 1.19 0.89 ND ND", "empty controls": "0 of 18"}
{"VH": "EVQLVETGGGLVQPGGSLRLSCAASGFDLNEYGISWVRQAPGKGPEWVSVIYADGMRTAYANDVKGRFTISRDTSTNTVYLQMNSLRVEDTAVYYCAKGNQAGTFDVWGQGTLVTVSS", "log10 Kd (nM) by replicate": "-0.51 -0.08 -0.38 -0.31 -0.65 -0.50", "empty controls": "0 of 18"}
{"VH": "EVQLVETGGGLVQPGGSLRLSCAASGFDLNEYGISWVRQAPGKGPEWVSVIYADGMRTAYADSVKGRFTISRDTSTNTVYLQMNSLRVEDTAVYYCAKGNAAGTFDVWGQGTLVTVSS", "log10 Kd (nM) by replicate": "0.87 0.23 -0.30 0.57 0.58 1.21", "empty controls": "0 of 18"}
{"VH": "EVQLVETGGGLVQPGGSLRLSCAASGFDLNEYGISWVRQAPGKGPEWVSVIYADGRRTAYADNVKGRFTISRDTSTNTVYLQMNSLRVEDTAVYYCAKGNVAGTFDIWGQGTLVTVSS", "log10 Kd (nM) by replicate": "-0.37 -0.27 -0.64 -0.48 -0.93 -0.03", "empty controls": "0 of 18"}
{"VH": "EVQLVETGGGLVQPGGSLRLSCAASGFDLDEYGISWVRQAPGKGPEWVSVIYADGMRTAYADSVKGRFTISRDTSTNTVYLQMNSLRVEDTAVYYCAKGNVAGTFDKWGQGTLVTVSS", "log10 Kd (nM) by replicate": "-0.56 0.11 -0.56 -0.50 -0.32 -0.19", "empty controls": "1 of 18 (1.92)"}
{"VH": "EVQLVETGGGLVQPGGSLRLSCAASGFDLNEYGISWVRQAPGKGPEWVSVIYADGMRTAYTDSVKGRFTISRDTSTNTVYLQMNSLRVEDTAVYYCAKGANAGTFDVWGQGTLVTVSS", "log10 Kd (nM) by replicate": "-0.42 -0.61 -0.81 -0.63 -0.69 -0.55", "empty controls": "0 of 18"}
{"VH": "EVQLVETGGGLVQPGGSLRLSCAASGFDLNEYGISWVRQAPGKGPEWVSVIYADGKRTAYADDVKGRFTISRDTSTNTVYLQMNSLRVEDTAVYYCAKGNTAGTFDLWGQGTLVTVSS", "log10 Kd (nM) by replicate": "-0.64 -0.51 -0.89 -0.84 -1.25 -0.95", "empty controls": "0 of 18"}
{"VH": "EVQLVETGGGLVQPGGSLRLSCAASGFDLNEYGISWVRQAPGKGPEWVSVIYADGMRTFYADNVKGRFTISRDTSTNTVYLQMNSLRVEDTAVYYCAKGETAGTFDVWGQGTLVTVSS", "log10 Kd (nM) by replicate": "-0.35 -0.41 -0.21 -0.61 -0.22 -0.02", "empty controls": "0 of 18"}
{"VH": "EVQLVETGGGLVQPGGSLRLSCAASGFDLDEYGISWVRQAPGKGPEWVSVIYADGMRTAYVDSVKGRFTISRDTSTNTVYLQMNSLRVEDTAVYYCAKGNVAGTFDTWGQGTLVTVSS", "log10 Kd (nM) by replicate": "-0.22 -0.05 0.09 -0.22 0.12 -0.10", "empty controls": "0 of 18"}
{"VH": "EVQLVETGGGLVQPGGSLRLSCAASGFDLNEYGISWVRQAPGKGPEWVSVIYADGVRTAYSDSVKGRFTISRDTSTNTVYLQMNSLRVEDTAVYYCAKGTNAGTFDLWGQGTLVTVSS", "log10 Kd (nM) by replicate": "-0.27 -0.66 -0.66 -0.47 -0.66 -0.25", "empty controls": "0 of 18"}
{"VH": "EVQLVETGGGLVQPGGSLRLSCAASGFDLNEYGISWVRQAPGKGPEWVSVIYADGKRTAYVDDVKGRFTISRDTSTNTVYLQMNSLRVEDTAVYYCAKGNVAGTFDTWGQGTLVTVSS", "log10 Kd (nM) by replicate": "-0.50 -0.32 -0.68 -0.91 -0.39 -0.18", "empty controls": "0 of 18"}
{"VH": "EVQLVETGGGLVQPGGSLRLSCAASGFDLNEYGISWVRQAPGKGPEWVSVIYADGVRTAYADNVKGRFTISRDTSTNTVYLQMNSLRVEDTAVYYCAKGENAGTFDIWGQGTLVTVSS", "log10 Kd (nM) by replicate": "-0.05 0.40 -0.16 -0.27 -0.56 -0.04", "empty controls": "0 of 18"}
{"VH": "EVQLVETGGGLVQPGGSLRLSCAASGFDLNEYGISWVRQAPGKGPEWVSVIYADGMRTVYADSVKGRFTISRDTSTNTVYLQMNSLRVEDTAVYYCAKGENAGTFDLWGQGTLVTVSS", "log10 Kd (nM) by replicate": "0.21 -0.21 -0.20 -0.34 -0.12 0.36", "empty controls": "0 of 18"}
{"VH": "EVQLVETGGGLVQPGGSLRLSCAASGFDLDEYGISWVRQAPGKGPEWVSVIYADGLRTAYADSVKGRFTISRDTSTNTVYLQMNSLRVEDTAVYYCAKGNQAGTFDVWGQGTLVTVSS", "log10 Kd (nM) by replicate": "-0.07 0.33 -0.11 -0.10 -0.29 0.29", "empty controls": "0 of 18"}
{"VH": "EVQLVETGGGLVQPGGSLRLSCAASGFDLNEYGISWVRQAPGKGPEWVSVIYADGLRTAYADDVKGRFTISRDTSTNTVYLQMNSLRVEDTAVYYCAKGEVAGTFDVWGQGTLVTVSS", "log10 Kd (nM) by replicate": "-0.09 -0.66 -0.54 -0.17 -0.26 -0.38", "empty controls": "0 of 18"}
{"VH": "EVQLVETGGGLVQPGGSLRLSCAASGFDLDEYGISWVRQAPGKGPEWVSVIYADGQRTAYADSVKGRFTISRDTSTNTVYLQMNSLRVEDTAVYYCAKGTNAGTFDQWGQGTLVTVSS", "log10 Kd (nM) by replicate": "-0.84 -0.29 -0.22 -0.11 -1.10 0.15", "empty controls": "0 of 18"}
{"VH": "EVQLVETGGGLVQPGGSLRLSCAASGFDLDEYGISWVRQAPGKGPEWVSVIYADGMRSAYADSVKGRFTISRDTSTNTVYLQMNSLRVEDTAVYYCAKGNVAGTFDVWGQGTLVTVSS", "log10 Kd (nM) by replicate": "-0.79 -0.78 -0.78 -0.75 -1.17 -1.08", "empty controls": "0 of 18"}
{"VH": "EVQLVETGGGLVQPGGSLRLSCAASGFDLDEYGISWVRQAPGKGPEWVSVIYADGQRTAYADSVKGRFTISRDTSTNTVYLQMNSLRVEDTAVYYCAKGNTAGTFDIWGQGTLVTVSS", "log10 Kd (nM) by replicate": "-0.29 -0.15 -0.55 -0.50 -0.57 -0.02", "empty controls": "0 of 18"}
{"VH": "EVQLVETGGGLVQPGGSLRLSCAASGFDLNEYGISWVRQAPGKGPEWVSVIYADGQRTAYVDSVKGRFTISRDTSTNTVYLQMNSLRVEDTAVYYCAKGNVAGTFDQWGQGTLVTVSS", "log10 Kd (nM) by replicate": "-0.46 -0.91 -0.35 -1.11 -0.85 -0.74", "empty controls": "1 of 18 (0.57)"}
{"VH": "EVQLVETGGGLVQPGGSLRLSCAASGFDLDEYGISWVRQAPGKGPEWVSVIYADGMRTAYADSVKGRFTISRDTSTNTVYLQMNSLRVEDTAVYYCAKGNVAGTFDEWGQGTLVTVSS", "log10 Kd (nM) by replicate": "-0.58 -0.48 -0.38 -0.83 -0.98 -0.98", "empty controls": "0 of 18"}
{"VH": "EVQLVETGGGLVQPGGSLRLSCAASGFDLDEYGISWVRQAPGKGPEWVSVIYADGQRTAYSDSVKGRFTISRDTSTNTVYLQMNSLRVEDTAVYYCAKGGNAGTFDVWGQGTLVTVSS", "log10 Kd (nM) by replicate": "-0.04 -0.23 -0.54 -0.43 -0.59 -0.34", "empty controls": "0 of 18"}
{"VH": "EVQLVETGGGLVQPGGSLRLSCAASGFDLNEYGISWVRQAPGKGPEWVSVIYADGVRTVYADSVKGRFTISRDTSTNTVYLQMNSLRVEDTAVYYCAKGQNAGTFDVWGQGTLVTVSS", "log10 Kd (nM) by replicate": "1.45 1.99 2.18 3.00 ND ND", "empty controls": "0 of 18"}
{"VH": "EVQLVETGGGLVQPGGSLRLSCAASGFDLNEYGISWVRQAPGKGPEWVSVIYADGMRTVYADSVKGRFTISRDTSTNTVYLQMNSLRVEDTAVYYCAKGQNAGTFDLWGQGTLVTVSS", "log10 Kd (nM) by replicate": "-0.23 -0.36 -0.50 -0.31 -0.41 -0.40", "empty controls": "0 of 18"}
{"VH": "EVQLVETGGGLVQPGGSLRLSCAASGFDLNEYGISWVRQAPGKGPEWVSVIYADGQRTAYADSVKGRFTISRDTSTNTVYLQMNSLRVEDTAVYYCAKGETAGTFDVWGQGTLVTVSS", "log10 Kd (nM) by replicate": "-0.34 -0.30 -0.57 -0.55 -0.11 0.29", "empty controls": "0 of 18"}
{"VH": "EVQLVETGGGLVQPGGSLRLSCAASGFNLDEYGISWVRQAPGKGPEWVSVIYADGRRTAYADSVKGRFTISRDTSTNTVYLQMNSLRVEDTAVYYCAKGNVAGTFDLWGQGTLVTVSS", "log10 Kd (nM) by replicate": "-0.17 -0.17 -0.37 -0.82 -0.80 -0.32", "empty controls": "0 of 18"}

A selection of 2 entries from above:

VH	log10 Kd (nM) by replicate	empty controls
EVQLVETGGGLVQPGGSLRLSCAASGFDLDEYGISWVRQAPGKGPEWVSVIYADGLRTAYADSVKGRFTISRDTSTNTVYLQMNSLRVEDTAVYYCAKGNQAGTFDVWGQGTLVTVSS	-0.07 0.33 -0.11 -0.10 -0.29 0.29	0 of 18
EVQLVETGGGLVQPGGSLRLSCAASGFDLDEYGISWVRQAPGKGPEWVSVIYADGQRTAYADSVKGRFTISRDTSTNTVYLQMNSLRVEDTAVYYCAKGTNAGTFDQWGQGTLVTVSS	-0.84 -0.29 -0.22 -0.11 -1.10 0.15	0 of 18

The parent sequence was in this pool as ten entries: three were never detected, three once, and four in most replicates, with averages from 0.34 to 2.37.
Values of this round are not directly comparable with the first-round values of the same sequences.
The authors' rule: three or more of the six replicates give a measured affinity, fewer mean a poor binder.

From the AlphaSeq antibody data of Li et al. 2023 (doi:10.1038/s41467-023-39022-2), copy in the FLAb collection.